Molecules are shown by their SMILES.

The chains behind the UniProt entries cited, without tags or fusion partners. Residues count along the entry.
UniProt Q9N1N9, 29-602 limits assumed: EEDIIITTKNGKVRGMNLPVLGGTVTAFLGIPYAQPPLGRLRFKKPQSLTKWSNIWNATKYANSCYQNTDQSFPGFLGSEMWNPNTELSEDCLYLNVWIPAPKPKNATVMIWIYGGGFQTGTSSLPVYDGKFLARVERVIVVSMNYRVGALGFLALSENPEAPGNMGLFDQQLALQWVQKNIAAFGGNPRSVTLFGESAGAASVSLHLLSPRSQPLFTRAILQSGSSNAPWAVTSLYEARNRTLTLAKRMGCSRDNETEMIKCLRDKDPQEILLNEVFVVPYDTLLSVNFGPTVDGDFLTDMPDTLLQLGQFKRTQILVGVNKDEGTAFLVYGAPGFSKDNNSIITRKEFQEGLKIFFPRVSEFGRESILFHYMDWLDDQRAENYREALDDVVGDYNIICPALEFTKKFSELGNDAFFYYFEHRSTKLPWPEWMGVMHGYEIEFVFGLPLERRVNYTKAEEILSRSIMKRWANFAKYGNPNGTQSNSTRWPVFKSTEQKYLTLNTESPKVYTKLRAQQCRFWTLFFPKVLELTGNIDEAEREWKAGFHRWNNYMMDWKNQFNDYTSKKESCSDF

The assay has as its target Carboxylic ester hydrolase (Equus caballus, UniProt Q9N1N9). As to conditions: pH 8.

In turn, `CC1(c2cccc([N+](=O)[O-])c2)NC(=O)c2cc([N+](=O)[O-])cc([N+](=O)[O-])c2N1` (stereo unspecified) came in with an IC50 of 9.9 µM. That is a single-digit micromolar value.

For orientation: IC50 means the concentration that inhibits the measured activity by half. Low readings indicate higher potency, high ones lower potency.

For the origin of these results see BindingDB's records for 28126287 (University of Sargodha, 2017).
